{
  "sequences": {"note": "Chains of the proteins cited; added tags and fusions are not shown. Residues count along the entry.", "UniProt P29317, 24-537": "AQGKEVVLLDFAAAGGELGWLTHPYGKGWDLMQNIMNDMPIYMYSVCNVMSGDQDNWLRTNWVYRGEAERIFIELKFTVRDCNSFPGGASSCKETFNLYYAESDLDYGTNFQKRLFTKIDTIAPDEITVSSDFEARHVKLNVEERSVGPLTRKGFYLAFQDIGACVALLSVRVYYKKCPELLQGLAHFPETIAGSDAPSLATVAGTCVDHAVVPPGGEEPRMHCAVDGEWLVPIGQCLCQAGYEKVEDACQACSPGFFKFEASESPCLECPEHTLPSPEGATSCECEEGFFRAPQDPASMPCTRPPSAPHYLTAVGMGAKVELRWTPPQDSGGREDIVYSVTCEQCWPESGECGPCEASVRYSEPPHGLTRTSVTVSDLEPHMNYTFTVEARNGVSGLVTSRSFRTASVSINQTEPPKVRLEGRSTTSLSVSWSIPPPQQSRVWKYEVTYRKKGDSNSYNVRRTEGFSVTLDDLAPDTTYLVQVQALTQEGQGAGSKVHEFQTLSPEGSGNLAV"},
  "source": "paper PMC3299084",
  "about": "(Journal of Medicinal Chemistry, 2012)",
  "origin": "cited, not measured here",
  "target": "EphA2 (Homo sapiens, UniProt P29317)",
  "conditions": "cited from earlier work",
  "data": [
    {"substance": "YSA peptide", "values": [
      {"measurement": "Kd", "result": 200, "unit": "nM"}
    ]}
  ]
}
